Source: patent US20250041279A1, “THERAPEUTIC MEDICINE FOR HEART DISEASE OR SKELETAL MUSCLE DISEASE” (SHIONOGI & CO., LTD., priority 2021, published 2025)

Protein sequences, listed by entry. Tags and fused reporters are not part of them. Residues count along the entry.
UniProt O00763, 27-2458: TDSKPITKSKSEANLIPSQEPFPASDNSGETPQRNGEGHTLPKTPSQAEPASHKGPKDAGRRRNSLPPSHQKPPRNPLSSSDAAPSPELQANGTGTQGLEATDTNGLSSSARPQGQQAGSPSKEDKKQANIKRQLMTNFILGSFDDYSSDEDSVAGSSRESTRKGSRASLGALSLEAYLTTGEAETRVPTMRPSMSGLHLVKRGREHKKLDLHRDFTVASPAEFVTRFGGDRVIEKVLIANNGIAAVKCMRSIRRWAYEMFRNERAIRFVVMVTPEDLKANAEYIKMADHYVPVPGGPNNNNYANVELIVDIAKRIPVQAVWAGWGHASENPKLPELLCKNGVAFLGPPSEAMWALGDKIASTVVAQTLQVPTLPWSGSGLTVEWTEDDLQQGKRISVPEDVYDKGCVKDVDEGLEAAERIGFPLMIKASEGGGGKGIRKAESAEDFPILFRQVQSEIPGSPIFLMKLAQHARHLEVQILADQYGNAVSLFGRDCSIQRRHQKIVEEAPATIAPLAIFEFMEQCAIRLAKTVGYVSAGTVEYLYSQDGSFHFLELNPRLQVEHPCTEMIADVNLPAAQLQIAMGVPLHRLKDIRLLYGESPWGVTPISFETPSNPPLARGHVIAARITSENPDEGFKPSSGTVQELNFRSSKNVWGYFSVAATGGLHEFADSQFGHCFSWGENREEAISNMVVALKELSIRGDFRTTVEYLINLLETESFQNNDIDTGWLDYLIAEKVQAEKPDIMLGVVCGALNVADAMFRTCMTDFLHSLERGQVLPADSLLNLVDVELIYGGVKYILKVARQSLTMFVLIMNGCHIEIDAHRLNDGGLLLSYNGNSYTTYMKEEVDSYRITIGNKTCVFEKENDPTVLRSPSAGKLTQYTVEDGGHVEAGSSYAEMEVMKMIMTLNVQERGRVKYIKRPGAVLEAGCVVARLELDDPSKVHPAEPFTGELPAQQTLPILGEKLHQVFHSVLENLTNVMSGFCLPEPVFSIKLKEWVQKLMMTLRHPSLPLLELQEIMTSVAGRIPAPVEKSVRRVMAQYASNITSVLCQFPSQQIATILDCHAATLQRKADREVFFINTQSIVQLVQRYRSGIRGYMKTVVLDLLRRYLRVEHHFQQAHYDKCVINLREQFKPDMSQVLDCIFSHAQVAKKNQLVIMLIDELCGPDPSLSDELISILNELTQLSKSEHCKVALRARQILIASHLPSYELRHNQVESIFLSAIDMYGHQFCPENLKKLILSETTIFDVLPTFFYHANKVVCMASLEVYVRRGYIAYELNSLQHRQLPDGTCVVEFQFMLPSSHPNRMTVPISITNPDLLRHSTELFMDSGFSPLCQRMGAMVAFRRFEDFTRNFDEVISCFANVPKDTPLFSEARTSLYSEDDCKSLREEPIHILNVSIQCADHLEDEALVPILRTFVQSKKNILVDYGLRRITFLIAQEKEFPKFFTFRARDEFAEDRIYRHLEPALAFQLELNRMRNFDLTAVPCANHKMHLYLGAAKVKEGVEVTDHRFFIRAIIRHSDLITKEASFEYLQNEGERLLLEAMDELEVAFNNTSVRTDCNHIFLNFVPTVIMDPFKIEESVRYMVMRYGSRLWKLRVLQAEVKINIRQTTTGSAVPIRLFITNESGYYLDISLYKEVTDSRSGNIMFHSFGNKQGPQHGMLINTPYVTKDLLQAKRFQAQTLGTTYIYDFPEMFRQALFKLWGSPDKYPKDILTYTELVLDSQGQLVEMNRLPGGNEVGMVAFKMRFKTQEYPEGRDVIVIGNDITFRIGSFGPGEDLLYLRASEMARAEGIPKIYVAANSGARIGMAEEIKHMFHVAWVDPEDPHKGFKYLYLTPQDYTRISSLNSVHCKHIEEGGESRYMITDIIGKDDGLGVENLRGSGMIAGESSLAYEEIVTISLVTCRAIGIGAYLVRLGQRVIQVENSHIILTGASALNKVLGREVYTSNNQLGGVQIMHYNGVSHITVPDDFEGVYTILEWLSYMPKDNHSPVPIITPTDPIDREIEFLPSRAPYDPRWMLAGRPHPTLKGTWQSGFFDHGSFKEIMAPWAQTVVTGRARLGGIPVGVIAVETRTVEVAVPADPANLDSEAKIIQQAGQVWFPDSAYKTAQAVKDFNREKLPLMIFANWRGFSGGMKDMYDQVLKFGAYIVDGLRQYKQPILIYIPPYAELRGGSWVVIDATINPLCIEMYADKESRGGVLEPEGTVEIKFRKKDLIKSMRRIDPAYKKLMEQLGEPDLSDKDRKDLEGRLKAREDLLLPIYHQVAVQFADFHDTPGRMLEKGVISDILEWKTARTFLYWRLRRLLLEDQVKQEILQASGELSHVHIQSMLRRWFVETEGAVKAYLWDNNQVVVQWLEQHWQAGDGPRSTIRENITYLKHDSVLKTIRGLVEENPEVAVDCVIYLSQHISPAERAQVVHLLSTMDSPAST

Biological target: recombinant human ACC2 (Homo sapiens (Human), UniProt O00763)
Test: Measurement of inhibitory activity of human ACC2 (MALDI-TOF MS)
Assay type: biochemical
Settings: read-out: IC50 hACC2
Excerpt: A cDNA encoding human ACC2 protein (27 amino acid residues to 2458 amino acid residues from the N-terminus) was cloned from a human kidney cDNA library (Clontech Laboratories, Inc.), a His-tag sequence was introduced at the 5′ end, and then inserted into pFastBac1 (Invitrogen). A recombinant baculovirus was produced in accordance with the protocol for a Bac-to-Bac baculovirus expression system (Invitrogen), and Sf-9 cells were infected therewith to express human ACC2 protein. The recovered cells were crushed, filtered through a filter, and then subjected to Ni affinity chromatography and anion exchange chromatography. Fractions containing human ACC2 protein were collected to obtain recombinant human ACC2.
The recombinant human ACC1 and the recombinant human ACC2 obtained from the above Preparation Examples were preincubated in an assay buffer (50 mM HEPES-KOH (pH 7.4), 10 mM magnesium chloride, 6 to 10 mM potassium citrate, 4 mM glutathione reduced form, and 1.5 mg/ml bovine serum albumin) for 1 hour. […] Deprotonated ions of the substrate acetyl-CoA (AcCoA) and the reaction product malonyl-CoA (MalCoA) were detected, and the intensity of each signal was used to calculate a conversion rate to malonyl-CoA or succinyl-CoA, i.e., intensity of [MalCoA-H]—/(intensity of [MalCoA-H]-+intensity of [AcCoA.H].). […]

Row | Structure (SMILES) | IC50
1 | CC(=O)N[C@@H](C)COC1CCC(Oc2nc3c(F)cc(OC4CCC4)cc3n2C)CC1 (some centres unmarked) [Compound I-1] | 5.1 nM
2 | CC(=O)N[C@@H](C)COC1CCC(Oc2nc3c(Cl)cc(OC4CC4)cc3n2C)CC1 (some centres unmarked) [Compound I-3] | 6.6 nM
